The assay relates to SK-BR-3 cells. As to the kind of experiment: In vitro killing activity (resazurin). The conditions noted are these: percentage of cytotoxicity relative to DP303c (from IC50); ADC conjugated with LND1002, 3 days at 37°C. Type of assay: cell-based. On the technique in general: Alamar Blue is a resazurin reagent that responds to reducing activity.

As to “AB5-ADC: DP001 (anti-HER2) with LC: Addition of GGLQSGA at the C-terminus, conjugated to LND1002 via mTGase”, the killing worked out at 166%.

DP14-ADC yielded a killing of 211%.

On to DP21-ADC, for which the killing is on record as 154%.

In turn, DP23-ADC had a killing of 265%.

The values above are taken from patent EP4755402A1, “ANTIBODY-DRUG CONJUGATE HAVING HIGH DRUG LOAD AND USE THEREOF” (priority 2023, dated 2025).
